In the experiment the target is recombinant human matriptase (Homo sapiens (Human), UniProt Q9Y5Y6). The experiment can be described thus: Matriptase inhibition, Ki determination. It counts as biochemical. Particulars: purified recombinant human matriptase, Boc-Gln-Ala-Arg-AMC substrate, pH 7.4.

Sequences of proteins named here, by UniProt entry; tags and fusion partners are left off. Residues count along the entry.
UniProt Q9Y5Y6, 615-855: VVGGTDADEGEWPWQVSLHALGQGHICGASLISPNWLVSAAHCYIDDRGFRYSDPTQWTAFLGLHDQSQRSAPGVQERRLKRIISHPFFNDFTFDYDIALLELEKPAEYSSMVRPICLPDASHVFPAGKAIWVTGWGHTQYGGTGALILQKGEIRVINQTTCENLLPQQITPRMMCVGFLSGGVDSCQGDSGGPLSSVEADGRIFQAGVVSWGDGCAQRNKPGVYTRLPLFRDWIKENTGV

Among the data in US10988505B2 are Ki values, retold here.

pKi: −log10 of the molar value.

Regarding `C[C@H](NC(=O)[C@H](CCC(N)=O)NC(=O)[C@@H](N)CCCNC(=N)N)C(=O)N[C@@H](CCCNC(=N)N)C(=O)c1nc2ccccc2s1` [Comparative #1], the pKi (as a rule, −log10 of the Ki, conventionally taken in molar units) is 10.94.
